Target: T1, Dihydrofolate reductase (Homo sapiens) (UniProt P00374)
T1 sequence (whole entry): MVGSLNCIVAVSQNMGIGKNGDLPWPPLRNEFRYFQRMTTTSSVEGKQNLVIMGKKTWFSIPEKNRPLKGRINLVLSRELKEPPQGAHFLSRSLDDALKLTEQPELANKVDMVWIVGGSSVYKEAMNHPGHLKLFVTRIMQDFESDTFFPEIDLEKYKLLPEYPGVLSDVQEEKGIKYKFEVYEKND

COc1cc(/C=C2\C(=O)Nc3ccccc32)cc(OC)c1O
Ka: 1.3 ×10⁷ /M
